From patent US20040242687A1, “Thrombus/thrombogenesis inhibitors” (priority 2001, published 2004)

Tested on: patients with transient cerebral ischemic attack (TIA) / cerebral infarction
Procedure: The present invention will be explained according to the following examples in more detail. However, the scope of the invention is not limited to these examples.
A person. They occurred transient cerebral ischemic attack (TIA). From three days after the onset, treatment with 160 mg/day of Cataclot (Ono Pharmaceutical Co., Ltd.) was started and it was continued for 2 weeks.
A person. They occurred TIA.
A person. They occurred TIA. From three days after the onset, treatment with 81 mg/day of Kids Bufferin (Lion Corporation) was started and this treatment was continued for about one month.
(§1) A person. They occurred cerebral infarction.
A person. They occurred cerebral infarction and, ten months after the occurrence of TIA.
as §1
A person. They occurred cerebral infarction. […] From that day of the onset of TIA, they were hospitalized for one week and subjected to intravenous drip containing 1 g of Nicholin H (Takeda Chemical Industries, Ltd.) and administration of 300 mg/day of Panaldine (Daiichi Pharmaceutical Co., Ltd.).
A person. They occurred cerebral infarction. […] They occurred TIA two years after the onset of cerebral infarction. From that day of the onset of TIA, administration of 200 mg/day of Panaldine (Daiichi Pharmaceutical Co., Ltd.) and, in addition, 162 mg/day of Kids Bufferin (Lion Corporation) was started.
A person. They occurred cerebral infarction. […] Immediately after the recurrence, they were treated with fluid for supplementation, urokinase and 300 mg/day of Panaldine (Daiichi Pharmaceutical Co., Ltd.).

Measured: side effects

COc1cccc(CCc2ccccc2OCC(CN(C)C)OC(=O)CCC(=O)O)c1.Cl (racemic) [sarpogrelate hydrochloride, (±)-1-[O-[2-(m-methoxyphenyl)ethyl]phenoxy]-3-(dimethylamino)-2-propyl hydrogensuccinate hydrochloride]
not observed: 75 mg/day, 337 days, single patients | 150 mg/day, 337 days, single patients | 150 mg/day, 496 days, single patient | 300 mg/day, 337 days, single patients

Read-outs that look alike come from different tables or passages of the source.
